Source: paper PMC4942611, “Promising Tools in Prostate Cancer Research: Selective Non-Steroidal Cytochrome P450 17A1 Inhibitors” (Scientific Reports, 2016)

Molecular target: T1, CYP21A2 (Homo sapiens, UniProt P08686)
T1 sequence (P08686 1-495): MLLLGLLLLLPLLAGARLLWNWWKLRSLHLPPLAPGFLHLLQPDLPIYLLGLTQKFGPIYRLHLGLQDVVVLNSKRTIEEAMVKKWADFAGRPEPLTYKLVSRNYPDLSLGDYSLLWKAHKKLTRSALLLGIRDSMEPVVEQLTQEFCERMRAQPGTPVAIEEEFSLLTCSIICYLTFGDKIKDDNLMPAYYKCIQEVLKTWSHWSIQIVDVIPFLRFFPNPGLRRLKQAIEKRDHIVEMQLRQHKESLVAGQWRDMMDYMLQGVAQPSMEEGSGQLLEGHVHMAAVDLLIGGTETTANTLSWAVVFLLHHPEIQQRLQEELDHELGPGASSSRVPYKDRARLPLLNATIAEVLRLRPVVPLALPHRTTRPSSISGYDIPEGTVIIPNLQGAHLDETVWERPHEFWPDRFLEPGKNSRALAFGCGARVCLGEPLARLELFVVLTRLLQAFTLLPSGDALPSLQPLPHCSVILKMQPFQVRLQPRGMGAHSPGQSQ
Assay: H295R cell assay, CYP21A2 activity
Type: cell-based
Conditions: H295R cells; read-out: IC50 for inhibition of CYP21A2 activity
Method: This cellular assay was also used to evaluate inhibitor selectivity.
The H295R steroid hormone synthesis assay was performed according to the OECD validation guideline. Cells were cultured in DMEM/F12 media supplemented with 1% ITS-premix and 2.5% Nu-serum at 37 °C with a 5% CO2 atmosphere. The cells were only used for experiments between passage […]. During exposure experiments, cells were grown in 24 well plates with a density of 3 × 10^5 cells/mL. […] To avoid interference from low levels of steroid hormones present in the Nu-serum, the exposure experiment was conducted with serum-free media. Each compound was tested at a minimum of seven concentration levels using three or more replicates and the experiment was repeated on two different days (n = 6–15). On each test plate a solvent control (SC) (medium with 0.1% DMSO) was included in triplicate and the maximal concentration of DMSO in the cell medium was 0.1%[49]. After 48 hours of incubation in presence of the test compounds, 950 μL of the medium was carefully removed and internal standards (50 μl of 0.1 μg/μl solution containing deuterated steroid analogues) were added. Samples were stored at −20 °C for later analysis.

In the case of `C[C@]12CC[C@H](O)CC1=CC[C@@H]1[C@@H]2CC[C@]2(C)C(c3cccnc3)=CC[C@@H]12` [abiraterone, reference compound], the pIC50 was 6.62.

pIC50: −log10 of the molar value.
